{"source": "patent US9029542B2", "about": "(priority 2011, dated 2015)"}
{"system": "cockspur grass", "experiment": "Weed clearing activity test with culture dish method (ex-vivo plate method)", "format": "in vivo", "conditions": "10 μg/g; root length after 5 days; positive = inhibition", "units": {"weed clearing activity, cockspur grass Root (Effect)": "%"}}
{"smiles": "CC(Oc1ccc(Cl)cc1)C(=O)OCC12COP(=O)(OC1)OC2", "note": "(stereo not drawn)", "weed clearing activity, cockspur grass Root (Effect)": 86}
{"smiles": "O=C(COc1ccc(Cl)cc1Cl)OCC12COP(=O)(OC1)OC2", "weed clearing activity, cockspur grass Root (Effect)": 94}
{"smiles": "CC(Oc1ccc(Cl)cc1Cl)C(=O)OCC12COP(=S)(OC1)OC2", "note": "(stereo not drawn)", "weed clearing activity, cockspur grass Root (Effect)": 91}
{"smiles": "O=C(COc1cccc(C(F)(F)F)c1)OCC12COP(=O)(OC1)OC2", "weed clearing activity, cockspur grass Root (Effect)": 91}
{"smiles": "CC(Oc1ccc(Cl)cc1F)C(=O)OCC12COP(=O)(OC1)OC2", "note": "(stereo not drawn)", "weed clearing activity, cockspur grass Root (Effect)": 86}
{"smiles": "CC(Oc1cccc(Cl)c1Cl)C(=O)OCC12COP(=O)(OC1)OC2", "note": "(stereo not drawn)", "weed clearing activity, cockspur grass Root (Effect)": 24}
{"smiles": "CC(Oc1ccc(F)cc1)C(=O)OCC12COP(=S)(OC1)OC2", "note": "(stereo not drawn)", "weed clearing activity, cockspur grass Root (Effect)": 87}
{"smiles": "Cc1ccc(Cl)c(OCC(=O)OCC23COP(=O)(OC2)OC3)c1", "weed clearing activity, cockspur grass Root (Effect)": 54}
{"smiles": "CC(Oc1ccc(F)cc1Cl)C(=O)OCC12COP(=O)(OC1)OC2", "note": "(stereo not drawn)", "weed clearing activity, cockspur grass Root (Effect)": 94}
{"system": "cockspur grass", "experiment": "Weed clearing activity test with culture dish method (ex-vivo plate method)", "format": "in vivo", "conditions": "10 μg/g; stem length after 5 days; positive = inhibition", "units": {"weed clearing activity, cockspur grass Stem (Effect)": "%"}}
{"smiles": "CC(Oc1ccc(Cl)cc1)C(=O)OCC12COP(=O)(OC1)OC2", "note": "(stereo not drawn)", "weed clearing activity, cockspur grass Stem (Effect)": 39}
{"smiles": "O=C(COc1ccc(Cl)cc1Cl)OCC12COP(=O)(OC1)OC2", "weed clearing activity, cockspur grass Stem (Effect)": 52}
{"smiles": "CC(Oc1ccc(Cl)cc1Cl)C(=O)OCC12COP(=S)(OC1)OC2", "note": "(stereo not drawn)", "weed clearing activity, cockspur grass Stem (Effect)": 37}
{"smiles": "O=C(COc1cccc(C(F)(F)F)c1)OCC12COP(=O)(OC1)OC2", "weed clearing activity, cockspur grass Stem (Effect)": 50}
{"smiles": "CC(Oc1ccc(Cl)cc1F)C(=O)OCC12COP(=O)(OC1)OC2", "note": "(stereo not drawn)", "weed clearing activity, cockspur grass Stem (Effect)": 40}
{"smiles": "CC(Oc1cccc(Cl)c1Cl)C(=O)OCC12COP(=O)(OC1)OC2", "note": "(stereo not drawn)", "weed clearing activity, cockspur grass Stem (Effect)": 34}
{"smiles": "CC(Oc1ccc(F)cc1)C(=O)OCC12COP(=S)(OC1)OC2", "note": "(stereo not drawn)", "weed clearing activity, cockspur grass Stem (Effect)": 35}
{"smiles": "Cc1ccc(Cl)c(OCC(=O)OCC23COP(=O)(OC2)OC3)c1", "weed clearing activity, cockspur grass Stem (Effect)": 3}
{"smiles": "CC(Oc1ccc(F)cc1Cl)C(=O)OCC12COP(=O)(OC1)OC2", "note": "(stereo not drawn)", "weed clearing activity, cockspur grass Stem (Effect)": 28}
{"system": "cockspur grass", "experiment": "Weed clearing activity test with culture dish method (ex-vivo plate method)", "format": "in vivo", "conditions": "100 μg/g; root length after 5 days; positive = inhibition", "units": {"weed clearing activity, cockspur grass Root (Effect)": "%"}}
{"smiles": "CC(Oc1ccc(Cl)cc1)C(=O)OCC12COP(=O)(OC1)OC2", "note": "(stereo not drawn)", "weed clearing activity, cockspur grass Root (Effect)": 93}
{"smiles": "O=C(COc1ccc(Cl)cc1Cl)OCC12COP(=O)(OC1)OC2", "weed clearing activity, cockspur grass Root (Effect)": 97}
{"smiles": "CC(Oc1ccc(Cl)cc1Cl)C(=O)OCC12COP(=S)(OC1)OC2", "note": "(stereo not drawn)", "weed clearing activity, cockspur grass Root (Effect)": 97}
{"smiles": "O=C(COc1cccc(C(F)(F)F)c1)OCC12COP(=O)(OC1)OC2", "weed clearing activity, cockspur grass Root (Effect)": 97}
{"smiles": "CC(Oc1ccc(Cl)cc1F)C(=O)OCC12COP(=O)(OC1)OC2", "note": "(stereo not drawn)", "weed clearing activity, cockspur grass Root (Effect)": 92}
{"smiles": "CC(Oc1cccc(Cl)c1Cl)C(=O)OCC12COP(=O)(OC1)OC2", "note": "(stereo not drawn)", "weed clearing activity, cockspur grass Root (Effect)": 43}
{"smiles": "CC(Oc1ccc(F)cc1)C(=O)OCC12COP(=S)(OC1)OC2", "note": "(stereo not drawn)", "weed clearing activity, cockspur grass Root (Effect)": 97}
{"smiles": "Cc1ccc(Cl)c(OCC(=O)OCC23COP(=O)(OC2)OC3)c1", "weed clearing activity, cockspur grass Root (Effect)": 93}
{"smiles": "CC(Oc1ccc(F)cc1Cl)C(=O)OCC12COP(=O)(OC1)OC2", "note": "(stereo not drawn)", "weed clearing activity, cockspur grass Root (Effect)": 97}
{"system": "cockspur grass", "experiment": "Weed clearing activity test with culture dish method (ex-vivo plate method)", "format": "in vivo", "conditions": "100 μg/g; stem length after 5 days; positive = inhibition", "units": {"weed clearing activity, cockspur grass Stem (Effect)": "%"}}
{"smiles": "CC(Oc1ccc(Cl)cc1)C(=O)OCC12COP(=O)(OC1)OC2", "note": "(stereo not drawn)", "weed clearing activity, cockspur grass Stem (Effect)": 44}
{"smiles": "O=C(COc1ccc(Cl)cc1Cl)OCC12COP(=O)(OC1)OC2", "weed clearing activity, cockspur grass Stem (Effect)": 52}
{"smiles": "CC(Oc1ccc(Cl)cc1Cl)C(=O)OCC12COP(=S)(OC1)OC2", "note": "(stereo not drawn)", "weed clearing activity, cockspur grass Stem (Effect)": 54}
{"smiles": "O=C(COc1cccc(C(F)(F)F)c1)OCC12COP(=O)(OC1)OC2", "weed clearing activity, cockspur grass Stem (Effect)": 78}
{"smiles": "CC(Oc1ccc(Cl)cc1F)C(=O)OCC12COP(=O)(OC1)OC2", "note": "(stereo not drawn)", "weed clearing activity, cockspur grass Stem (Effect)": 49}
{"smiles": "CC(Oc1cccc(Cl)c1Cl)C(=O)OCC12COP(=O)(OC1)OC2", "note": "(stereo not drawn)", "weed clearing activity, cockspur grass Stem (Effect)": 46}
{"smiles": "CC(Oc1ccc(F)cc1)C(=O)OCC12COP(=S)(OC1)OC2", "note": "(stereo not drawn)", "weed clearing activity, cockspur grass Stem (Effect)": 64}
{"smiles": "Cc1ccc(Cl)c(OCC(=O)OCC23COP(=O)(OC2)OC3)c1", "weed clearing activity, cockspur grass Stem (Effect)": 37}
{"smiles": "CC(Oc1ccc(F)cc1Cl)C(=O)OCC12COP(=O)(OC1)OC2", "note": "(stereo not drawn)", "weed clearing activity, cockspur grass Stem (Effect)": 59}
{"system": "rape", "experiment": "Weed clearing activity test with culture dish method (ex-vivo plate method)", "format": "in vivo", "conditions": "10 μg/g; root length after 5 days; positive = inhibition", "units": {"weed clearing activity, rape Root (Effect)": "%"}}
{"smiles": "CC(Oc1ccc(Cl)cc1)C(=O)OCC12COP(=O)(OC1)OC2", "note": "(stereo not drawn)", "weed clearing activity, rape Root (Effect)": 97}
{"smiles": "O=C(COc1ccc(Cl)cc1Cl)OCC12COP(=O)(OC1)OC2", "weed clearing activity, rape Root (Effect)": 95}
{"smiles": "CC(Oc1ccc(Cl)cc1Cl)C(=O)OCC12COP(=S)(OC1)OC2", "note": "(stereo not drawn)", "weed clearing activity, rape Root (Effect)": 97}
{"smiles": "O=C(COc1cccc(C(F)(F)F)c1)OCC12COP(=O)(OC1)OC2", "weed clearing activity, rape Root (Effect)": 92}
{"smiles": "CC(Oc1ccc(Cl)cc1F)C(=O)OCC12COP(=O)(OC1)OC2", "note": "(stereo not drawn)", "weed clearing activity, rape Root (Effect)": 98}
{"smiles": "CC(Oc1cccc(Cl)c1Cl)C(=O)OCC12COP(=O)(OC1)OC2", "note": "(stereo not drawn)", "weed clearing activity, rape Root (Effect)": 93}
{"smiles": "CC(Oc1ccc(F)cc1)C(=O)OCC12COP(=S)(OC1)OC2", "note": "(stereo not drawn)", "weed clearing activity, rape Root (Effect)": 94}
{"smiles": "Cc1ccc(Cl)c(OCC(=O)OCC23COP(=O)(OC2)OC3)c1", "weed clearing activity, rape Root (Effect)": 93}
{"smiles": "CC(Oc1ccc(F)cc1Cl)C(=O)OCC12COP(=O)(OC1)OC2", "note": "(stereo not drawn)", "weed clearing activity, rape Root (Effect)": 98}
{"system": "rape", "experiment": "Weed clearing activity test with culture dish method (ex-vivo plate method)", "format": "in vivo", "conditions": "10 μg/g; stem length after 5 days; positive = inhibition, negative = promotion", "units": {"weed clearing activity, rape Stem (Effect)": "%"}}
{"smiles": "CC(Oc1ccc(Cl)cc1)C(=O)OCC12COP(=O)(OC1)OC2", "note": "(stereo not drawn)", "weed clearing activity, rape Stem (Effect)": 73}
{"smiles": "O=C(COc1ccc(Cl)cc1Cl)OCC12COP(=O)(OC1)OC2", "weed clearing activity, rape Stem (Effect)": 92}
{"smiles": "CC(Oc1ccc(Cl)cc1Cl)C(=O)OCC12COP(=S)(OC1)OC2", "note": "(stereo not drawn)", "weed clearing activity, rape Stem (Effect)": 89}
{"smiles": "O=C(COc1cccc(C(F)(F)F)c1)OCC12COP(=O)(OC1)OC2", "weed clearing activity, rape Stem (Effect)": 87}
{"smiles": "CC(Oc1ccc(Cl)cc1F)C(=O)OCC12COP(=O)(OC1)OC2", "note": "(stereo not drawn)", "weed clearing activity, rape Stem (Effect)": 74}
{"smiles": "CC(Oc1cccc(Cl)c1Cl)C(=O)OCC12COP(=O)(OC1)OC2", "note": "(stereo not drawn)", "weed clearing activity, rape Stem (Effect)": 66}
{"smiles": "CC(Oc1ccc(F)cc1)C(=O)OCC12COP(=S)(OC1)OC2", "note": "(stereo not drawn)", "weed clearing activity, rape Stem (Effect)": 67}
{"smiles": "Cc1ccc(Cl)c(OCC(=O)OCC23COP(=O)(OC2)OC3)c1", "weed clearing activity, rape Stem (Effect)": 75}
{"smiles": "CC(Oc1ccc(F)cc1Cl)C(=O)OCC12COP(=O)(OC1)OC2", "note": "(stereo not drawn)", "weed clearing activity, rape Stem (Effect)": 90}
{"system": "rape", "experiment": "Weed clearing activity test with culture dish method (ex-vivo plate method)", "format": "in vivo", "conditions": "100 μg/g; root length after 5 days; positive = inhibition", "units": {"weed clearing activity, rape Root (Effect)": "%"}}
{"smiles": "CC(Oc1ccc(Cl)cc1)C(=O)OCC12COP(=O)(OC1)OC2", "note": "(stereo not drawn)", "weed clearing activity, rape Root (Effect)": 97}
{"smiles": "O=C(COc1ccc(Cl)cc1Cl)OCC12COP(=O)(OC1)OC2", "weed clearing activity, rape Root (Effect)": 99}
{"smiles": "CC(Oc1ccc(Cl)cc1Cl)C(=O)OCC12COP(=S)(OC1)OC2", "note": "(stereo not drawn)", "weed clearing activity, rape Root (Effect)": 99}
{"smiles": "O=C(COc1cccc(C(F)(F)F)c1)OCC12COP(=O)(OC1)OC2", "weed clearing activity, rape Root (Effect)": 99}
{"smiles": "CC(Oc1ccc(Cl)cc1F)C(=O)OCC12COP(=O)(OC1)OC2", "note": "(stereo not drawn)", "weed clearing activity, rape Root (Effect)": 98}
{"smiles": "CC(Oc1cccc(Cl)c1Cl)C(=O)OCC12COP(=O)(OC1)OC2", "note": "(stereo not drawn)", "weed clearing activity, rape Root (Effect)": 98}
{"smiles": "CC(Oc1ccc(F)cc1)C(=O)OCC12COP(=S)(OC1)OC2", "note": "(stereo not drawn)", "weed clearing activity, rape Root (Effect)": 99}
{"smiles": "Cc1ccc(Cl)c(OCC(=O)OCC23COP(=O)(OC2)OC3)c1", "weed clearing activity, rape Root (Effect)": 99}
{"smiles": "CC(Oc1ccc(F)cc1Cl)C(=O)OCC12COP(=O)(OC1)OC2", "note": "(stereo not drawn)", "weed clearing activity, rape Root (Effect)": 99}
{"system": "rape", "experiment": "Weed clearing activity test with culture dish method (ex-vivo plate method)", "format": "in vivo", "conditions": "100 μg/g; stem length after 5 days; positive = inhibition", "units": {"weed clearing activity, rape Stem (Effect)": "%"}}
{"smiles": "CC(Oc1ccc(Cl)cc1)C(=O)OCC12COP(=O)(OC1)OC2", "note": "(stereo not drawn)", "weed clearing activity, rape Stem (Effect)": 92}
{"smiles": "O=C(COc1ccc(Cl)cc1Cl)OCC12COP(=O)(OC1)OC2", "weed clearing activity, rape Stem (Effect)": 99}
{"smiles": "CC(Oc1ccc(Cl)cc1Cl)C(=O)OCC12COP(=S)(OC1)OC2", "note": "(stereo not drawn)", "weed clearing activity, rape Stem (Effect)": 93}
{"smiles": "O=C(COc1cccc(C(F)(F)F)c1)OCC12COP(=O)(OC1)OC2", "weed clearing activity, rape Stem (Effect)": 97}
{"smiles": "CC(Oc1ccc(Cl)cc1F)C(=O)OCC12COP(=O)(OC1)OC2", "note": "(stereo not drawn)", "weed clearing activity, rape Stem (Effect)": 94}
{"smiles": "CC(Oc1cccc(Cl)c1Cl)C(=O)OCC12COP(=O)(OC1)OC2", "note": "(stereo not drawn)", "weed clearing activity, rape Stem (Effect)": 90}
{"smiles": "CC(Oc1ccc(F)cc1)C(=O)OCC12COP(=S)(OC1)OC2", "note": "(stereo not drawn)", "weed clearing activity, rape Stem (Effect)": 93}
{"smiles": "Cc1ccc(Cl)c(OCC(=O)OCC23COP(=O)(OC2)OC3)c1", "weed clearing activity, rape Stem (Effect)": 88}
{"smiles": "CC(Oc1ccc(F)cc1Cl)C(=O)OCC12COP(=O)(OC1)OC2", "note": "(stereo not drawn)", "weed clearing activity, rape Stem (Effect)": 94}
